Biological target: T1, NIF-1 (NRC Interacting Factor-1), full-length human, untagged (human, UniProt Q9H4Z2 1-1342, ^35S-L-methionine label in the in vitro binding assay)
T1 construct: Made by in vitro transcription/translation in reticulocyte lysate for the GST pull-down, and expressed from pEX-NIF-1 in HeLa cells for the reporter assay; also called ^35S-labeled NIF-1; ^35S-NIF-1
T1 sequence: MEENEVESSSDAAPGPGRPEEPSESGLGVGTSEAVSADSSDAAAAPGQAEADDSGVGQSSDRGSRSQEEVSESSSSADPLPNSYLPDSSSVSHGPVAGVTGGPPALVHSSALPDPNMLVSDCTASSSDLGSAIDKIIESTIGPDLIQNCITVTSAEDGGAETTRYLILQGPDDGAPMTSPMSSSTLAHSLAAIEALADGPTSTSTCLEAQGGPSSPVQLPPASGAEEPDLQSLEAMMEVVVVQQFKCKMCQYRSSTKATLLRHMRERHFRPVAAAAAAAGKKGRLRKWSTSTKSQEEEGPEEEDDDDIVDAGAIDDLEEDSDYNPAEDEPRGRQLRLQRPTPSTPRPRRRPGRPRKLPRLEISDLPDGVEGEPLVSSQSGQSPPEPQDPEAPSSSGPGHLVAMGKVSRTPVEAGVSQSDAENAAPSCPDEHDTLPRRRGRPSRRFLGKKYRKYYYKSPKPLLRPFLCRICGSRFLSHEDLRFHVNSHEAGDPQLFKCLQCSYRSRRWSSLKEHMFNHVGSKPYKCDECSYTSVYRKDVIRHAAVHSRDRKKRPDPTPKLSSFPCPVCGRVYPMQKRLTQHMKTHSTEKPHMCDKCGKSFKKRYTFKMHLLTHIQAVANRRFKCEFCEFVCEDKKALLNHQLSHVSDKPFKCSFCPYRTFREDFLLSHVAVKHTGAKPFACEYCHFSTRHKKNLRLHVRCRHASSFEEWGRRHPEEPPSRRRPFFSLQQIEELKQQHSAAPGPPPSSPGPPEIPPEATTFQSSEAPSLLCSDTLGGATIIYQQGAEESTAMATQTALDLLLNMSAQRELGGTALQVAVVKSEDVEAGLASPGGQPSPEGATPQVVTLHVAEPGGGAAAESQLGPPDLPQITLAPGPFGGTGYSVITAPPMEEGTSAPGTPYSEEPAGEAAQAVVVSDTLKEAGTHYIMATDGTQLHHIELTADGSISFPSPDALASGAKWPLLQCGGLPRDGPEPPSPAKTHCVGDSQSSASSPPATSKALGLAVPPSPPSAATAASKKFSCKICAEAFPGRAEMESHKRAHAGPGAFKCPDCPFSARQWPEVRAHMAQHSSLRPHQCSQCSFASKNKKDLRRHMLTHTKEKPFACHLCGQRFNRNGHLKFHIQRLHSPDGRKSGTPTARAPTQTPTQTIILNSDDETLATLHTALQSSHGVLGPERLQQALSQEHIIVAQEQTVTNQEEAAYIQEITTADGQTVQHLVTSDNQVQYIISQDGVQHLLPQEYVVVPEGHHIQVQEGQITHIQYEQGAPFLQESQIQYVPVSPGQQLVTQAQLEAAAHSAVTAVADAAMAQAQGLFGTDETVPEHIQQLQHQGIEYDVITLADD
Assay: GST pull-down of in vitro translated ^35S-NIF-1, SDS gel and autoradiography
Description: GST-NRC.1a was expressed in SG1 1117 E. coli by induction with IPTG, purified, and immobilized to glutathione-agarose described previously (Hadzic et al., “A 10-Amino-Acid Sequence in the N-Terminal A/B Domain of Thyroid Hormone Receptor α is Essential for Transcriptional Activation and Interaction with the General Transcription Factor TFIIB,” Mol. Cell. Biol. 15:4507-4517 (1995), Hadzic et al., “A Novel Multifunctional Motif in the N-Terminal A/B Domain of T3Rα Modulates DNA-Binding and Receptor Dimerization,” J. Biol. Chem. 273:10270-10278 (1998), which are hereby incorporated by reference in their entirety). […] The samples were washed with the same incubation buffer and the bound ³⁵S-labeled protein analyzed by SDS-gel electrophoresis followed by autoradiography.
To document that this region of NRC binds to NIF-1 in vitro, this region of rat NRC was expressed as a GST-fusion in E. coli, and was purified with glutathione-agarose beads. ³⁵S-labeled NIF-1, synthesized by in vitro transcription/translation in reticulocyte lysates, and incubated with (˜200 ng) of purified GST or GST-NRC.1a at 4° C. for 30 min in binding buffer with mild shaking. The GST-glutathione-agarose beads were washed and the bound ³⁵S-labeled proteins analyzed by SDS-gel electrophoresis followed by autoradiography.

B1: GST (purified, on glutathione-agarose beads, control of the in vitro binding assay) (other, UniProt P08515 1-218, looked up)
chain: MSPILGYWKIKGLVQPTRLLLEYLEEKYEEHLYERDEGDKWRNKKFELGLEFPNLPYYIDGDVKLTQSMAIIRYIADKHNMLGGCPKERAEISMLEGAVLDIRYGVSRIAYSKDFETLKVDFLSKLPEMLKMFEDRLCHKTYLNGDHVTHPDFMLYDALDVVLYMDPMCLDAFPKLVCFKKRIEAIPQIDKYLKSSKYIAWPLQGWQATFGGGDHPPK
binding result: no binding (tested: ~200 ng of purified GST)
